Test results reported in ChEMBL document CHEMBL2440068, “Synthesis and evaluation of N-alkyl-S-[3-(piperidin-1-yl)propyl]isothioureas: high affinity and human/rat species-selective histamine H(3) receptor antagonists” (Bioorg Med Chem Lett, 2013).

Protein sequences, listed by entry. Tags and fused reporters are not part of them. Lines headed by an entry give the natural chain unless they say otherwise; changes in a name come on top.
UniProt Q9Y5N1: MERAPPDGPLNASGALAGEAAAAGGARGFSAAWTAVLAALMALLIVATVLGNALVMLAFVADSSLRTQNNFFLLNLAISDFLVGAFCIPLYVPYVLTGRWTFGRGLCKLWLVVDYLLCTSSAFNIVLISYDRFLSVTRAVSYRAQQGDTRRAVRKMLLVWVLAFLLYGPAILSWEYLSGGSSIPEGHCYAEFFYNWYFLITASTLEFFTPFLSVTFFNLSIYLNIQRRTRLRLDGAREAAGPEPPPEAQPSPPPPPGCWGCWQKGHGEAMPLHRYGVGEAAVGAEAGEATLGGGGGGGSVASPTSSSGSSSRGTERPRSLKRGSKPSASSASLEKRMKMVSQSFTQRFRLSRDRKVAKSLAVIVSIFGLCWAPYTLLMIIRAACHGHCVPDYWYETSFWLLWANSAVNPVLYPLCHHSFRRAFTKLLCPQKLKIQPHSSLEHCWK

Target: Histamine H3 receptor (Homo sapiens, UniProt Q9Y5N1)
Test: Antagonist activity at human histamine H3 receptor expressed in CHO cells assessed as inhibition of forskolin/R-alpha-methylhistamine-induced cAMP accumulation after 1.5 hrs by TR-FRET immunoassay
Type: functional, cell-based

Q: What does the source list for `NC(=NCc1ccc(Cl)cc1)SCCCc1cnc[nH]1` [CLOBENPROPIT]?
A: IC50: 0.794 nM; Kb (read-out: pA2 (converted)): 0.1 nM
